Assay results taken from patent US9290528B1, “Light-activated compounds” (University of Kentucky Research Foundation, priority 2013, dated 2016).

Key:
[1] = test system: HL60 cells
[2] = test system: HL60 cells; test: Cellular uptake by flow cytometry; conditions: for uptake of 9 compared with 10 (increase in signal): 9 at 5 μM, 10 at 20 μM

In the case of Ru(bathophenanthroline)3 [Compound 9], the “increase of relative amount in cells from 2 to 24 hours” value [1] is reported as “approximately 4 fold”, the “relative amount of compound in cells versus the cell media” value [1] is reported as 5.6% and the “increase of average emission of cells between 2 and 24 hours” value [2] is reported as 2.8 fold. The “uptake of 9 compared with 10 (increase in signal)” value ([2]; 2 hours) was 11.6 fold and the “uptake of 9 compared with 10 (increase in signal)” value ([2]; 24 hours) was 8.2 fold.
